Measured values: patent US8242166B2, “C(10) ethyl ester and C(10) cyclopropyl ester substituted taxanes” (Florida State University Research Foundation, Inc., priority 2008, dated 2012)

Columns and labels:
[1] = tested on: human MSTO-211H mesothelioma xenograft; type: in vivo; conditions: 30 mg/kg IV Q4D × 4
[2] = tested on: MSTO-211H; assay: MTT cytotoxicity (IC50), MSTO-211H; type: cell-based; conditions: Homo sapiens
Procedure: Compound 17932 was tested in four of these cell lines, while the remaining compounds were tested in all of these cell lines. All cell lines were maintained in RPMI-1640 tissue culture medium (TCM, supplemented with antibiotics and 10% fetal bovine serum) and cultured at 37° C. in humidified air containing 5% CO2. To assess the antiproliferative effects of the test compounds, 172 μL of tumor cell suspension (1.45×10^4 cells/ml) were added to each well of a 96-well plate and incubated for 24 h at 37° C. in 5% CO2 in air to allow cells to adhere. Seven 2-fold drug dilutions in TCM/DMSO were performed in triplicate in separate 96-well plates and 28 μL was transferred to the wells containing tumor cells (200 μL final volume/0.1% DMSO). Plates were incubated for 72 h and cell viability was determined by adding 50 μL of warm TCM containing 5 mg/mL MTT (3-[4,5-dimethylthiazol-2-yl]-2,5-diphenyltetrazolium bromide) to each well and incubating for 1 h at 37° C. Plates were processed and the absorbances of the resulting solutions were measured by a plate reader at 570 nm. […] (GraphPad Prism version 4.00 for Windows). Studies were conducted by Taxolog, Inc., Tallahassee, Fla.

[3] = tested on: human MSTO-211H mesothelioma xenograft; assay: MSTO-211H xenograft study 101 (Example 30); conditions: for activity: 18926 20 mg/kg, 18365 25 mg/kg i.v. q4d×4, study ongoing
[4] = tested on: Sprague-Dawley rats; conditions: rat, in vivo
[5] = tested on: human MSTO-211H mesothelioma xenograft; assay: MSTO-211H xenograft study 004 (Example 28)
[6] = tested on: human MSTO-211H mesothelioma xenograft; assay: MSTO-211H xenograft study 008 (Example 29)
[7] = MTT, 72 h, read-out: IN Vitro IC50 (nm) MSTO
[8] = Resistance MRP2/BCRP1, read-out: MSTO Mesothelioma (Table 4, quantity not named; IC50 values as Table 2)

SMILES	IC50 [2, 7] [nM]	IC50 [2, 8] [nM]	activity [3]	Day 18 ALT, points toward toxicity score [4]	Day 18 BUN, points toward toxicity score [4]	Day 18 PLT, points toward toxicity score [4]	Day 24 BW (recovery), points toward toxicity score [4]	Day 24 PLT (recovery), points toward toxicity score [4]	Dia B/M, points toward toxicity score [4]	Dia L/W, points toward toxicity score [4]	Neuro Tox, points toward toxicity score [4]	Score AVE [4]	other results
CC(=O)O[C@@]12CO[C@@H]1C[C@H](O)[C@@]1(C)C(=O)[C@H](OC(=O)C3CC3)C3=C(C)[C@@H](OC(=O)[C@H](O)[C@@H](NC(=O)OC4CCC4)c4cccs4)C[C@@](O)([C@@H](OC(=O)c4ccccc4)C12)C3(C)C (stereo partly drawn) [Compound 18365]	0.7	0.7	significant regression	20 (key: 0: ALT elevation ≧2 × cont; ALT elevation ≧1.5 × cont; 10: ALT elevation ≧1.25 × cont; 20: ALT elevation <1.25 × cont)	20 (key: 0: BUN elevation ≧2 × cont; BUN elevation ≧1.5 × cont; 10: BUN elevation ≧1.25 × cont; 20: BUN elevation <1.25 × cont)	20 (key: 0: Platelets decrease ≧75%; Platelets decrease ≧50%; 10: Platelets decrease ≧25%; 20: Platelets decrease <25%)	0	0	5	5	−10 (key: Neurotoxicity N (0); −10: Neurotoxicity Y (1-4))	8.1	activity [1]: very active in this study with tumor regressions; TR ([3]; 25 mg/kg i.v. q4d×4, five mice): 1; Day 18 AST, points toward toxicity score [4]: 20 (key: 0: AST elevation ≧2 × cont.; AST elevation ≧1.5 × cont; 10: AST elevation ≧1.25 × cont; 20: AST elevation <1.25 × cont); Day 22 BW, points toward toxicity score [4]: 20 (key: Body Weight Loss ≧20%; Body Weight Loss ≧15%; Body Weight Loss ≧10%; 20: Body Weight Loss <10%); Day 24 WBC (recovery), points toward toxicity score [4]: 0
CCC(=O)O[C@H]1C(=O)[C@@]2(C)C([C@H](OC(=O)c3ccccc3)[C@]3(O)C[C@H](OC(=O)[C@H](O)[C@@H](NC(=O)OC4CCCC4)c4cccs4)C(C)=C1C3(C)C)[C@]1(OC(C)=O)CO[C@@H]1C[C@@H]2O (stereo partly drawn) [Compound 18926]	0.4	0.4	significant regression	20 (key: 0: ALT elevation ≧2 × cont; ALT elevation ≧1.5 × cont; 10: ALT elevation ≧1.25 × cont; 20: ALT elevation <1.25 × cont)	20 (key: 0: BUN elevation ≧2 × cont; BUN elevation ≧1.5 × cont; 10: BUN elevation ≧1.25 × cont; 20: BUN elevation <1.25 × cont)	20 (key: 0: Platelets decrease ≧75%; Platelets decrease ≧50%; 10: Platelets decrease ≧25%; 20: Platelets decrease <25%)	0	–	5	–	−10 (key: Neurotoxicity N (0); −10: Neurotoxicity Y (1-4))	–	tumor nadir size (mean) ([5]; 25 mg/kg i.v. q4d×4): 32 mg; tumor regression over the initial tumor weight of 222 mg ([5]; 25 mg/kg i.v. q4d×4): 85%
CCC(=O)O[C@H]1C(=O)[C@@]2(C)C([C@H](OC(=O)c3ccccc3)[C@]3(O)C[C@H](OC(=O)[C@H](O)[C@@H](NC(=O)OC4CCC4)c4cccs4)C(C)=C1C3(C)C)[C@]1(OC(C)=O)CO[C@@H]1C[C@@H]2O (stereo partly drawn) [Compound 19244]	0.6	0.6	–	–	–	20 (key: 0: Platelets decrease ≧75%; Platelets decrease ≧50%; 10: Platelets decrease ≧25%; 20: Platelets decrease <25%)	0	0	5	5	−10 (key: Neurotoxicity N (0); −10: Neurotoxicity Y (1-4))	6.3	tumor nadir size (mean) ([6]; 30 mg/kg i.v. q4d×4): 51 mg; tumor regression over the initial tumor weight of 220 mg ([6]; 30 mg/kg i.v. q4d×4): 77%
CC(=O)O[C@@]12CO[C@@H]1C[C@H](O)[C@@]1(C)C(=O)[C@H](O)C3=C(C)[C@@H](OC(=O)[C@H](O)[C@@H](NC(=O)OC(C)(C)C)c4ccccc4)C[C@@](O)([C@@H](OC(=O)c4ccccc4)[C@H]21)C3(C)C [Docetaxel, docetaxel, reference compound]	4	4	–	–	–	–	–	–	–	–	–	–	maximum weight loss ([5]; 25 mg/kg qwk×3): 31%; regressions ([5]; 25 mg/kg qwk×3): did not produce any regressions; maximum weight loss ([6]; 25 mg/kg qwk×3): 24%; regressions ([6]; 25 mg/kg qwk×3): did not produce any regressions

Where two headings read alike, the source gives them in different places.
